Structures are written as SMILES. The list shows a part of the results, in another mix than the full data. Some of these compounds have results that are not shown, active ones among them. Activity calls are given as the source filed them.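 The calls were made as follows: active = inhibition of at least 40% at 20 µM, with no more than 30% in the related APOBEC3A deaminase screen; inactive = the rest.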

Sequences of proteins named here, by UniProt entry; tags and fusion partners are left off.
UniProt Q9HC16, whole entry: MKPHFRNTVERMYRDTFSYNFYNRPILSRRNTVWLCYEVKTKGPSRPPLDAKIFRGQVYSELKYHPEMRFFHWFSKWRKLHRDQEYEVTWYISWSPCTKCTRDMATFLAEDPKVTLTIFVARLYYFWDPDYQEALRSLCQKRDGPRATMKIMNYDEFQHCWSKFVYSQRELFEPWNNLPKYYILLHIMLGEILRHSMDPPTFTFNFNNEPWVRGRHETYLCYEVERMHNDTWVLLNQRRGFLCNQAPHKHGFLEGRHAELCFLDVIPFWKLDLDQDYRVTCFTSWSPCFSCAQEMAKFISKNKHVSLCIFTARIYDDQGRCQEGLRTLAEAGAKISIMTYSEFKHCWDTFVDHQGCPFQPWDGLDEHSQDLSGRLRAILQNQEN

This test concerns the target DNA dC->dU-editing enzyme APOBEC-3G (Homo sapiens) (UniProt Q9HC16). The test can be described thus: APOBEC3G DNA deaminase inhibitors, primary screen, biochemical, fluorescence, single-stranded DNA substrate, uHTS (AID 493012).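 Also: plate controls were DMSO wells with A3G for no effect and wells lacking A3G enzyme for full effect.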 Particulars: recombinant A3G, ssDNA deamination FAM/TAMRA fluorescence; at 20 µM; stronger effect = higher value.
In the case of `CN(C)c1ccc(C(=O)NCC2(N(C)C)CCCCC2)cc1`, the inhibition is inactive: 0.855%.
On to `CN(C)C1CCCC1OC(=O)C(O)(c1ccccc1)c1ccccc1` (centres undefined), for which the inhibition is inactive: -12.1%.
Regarding `Cc1ccccc1C(=O)NCC1(N2CCCCC2)CCCCC1`, the inhibition is inactive: 0.075%.
In the case of `COc1ccc(C(=O)NCC2(N(C)C)CCCCC2)cc1` it was inactive: -7.52%; in that of `O=C(NCC1(N2CCCCC2)CCCCC1)c1cccc(Br)c1`, inactive: -5.67%; in that of `CCN1CCCC(OC(=O)C2(O)c3ccccc3C=Cc3ccccc32)C1` (centres undefined), inactive: -4.48%.
Under `Cc1cc(C(=O)NCC2(N3CCCCC3)CCCCC2)ccc1[N+](=O)[O-]` stands inactive: 6.21%.
For `O=C(NCC1(N2CCCCC2)CCCCC1)c1cc(F)c(F)cc1Cl`, the inhibition is inactive: -5.74%.
Consider `C=CCN1CCN(CCOC(=O)C(O)(c2ccccc2)c2ccccc2)CC1`, for which the inhibition is inactive: -6.1%.
In the case of `CN1[C@@H]2CC[C@H]1CC(OC(=O)C(O)(c1ccccc1)c1ccccc1)C2` (some centres undefined) it was inactive: 1.49%; in that of `O=C(NCC1(N2CCCCC2)CCCCC1)c1cc([N+](=O)[O-])ccc1Cl`, inactive: -0.421%; in that of `Cc1ccc(C(=O)NCC2(N3CCCCC3)CCCCC2)cc1`, inactive: -10%.
Consider `COc1cc(SC)ccc1C(=O)NCC1(N(C)C)CCCCC1`, for which the inhibition is inactive: -2.57%.
Turning to `CCN(CC)CC(C)C(C)OC(=O)C(O)(c1ccccc1)c1ccccc1` (centres undefined), the inhibition was inactive: -4.82%.
For the molecule `CC(C)N1C(=O)CC2(CCN(CCOC(=O)C(O)(c3ccccc3)c3ccccc3)CC2)C1=O`, the inhibition is inactive: -2.52%.
As for `O=C(OC1CN2CCC1CC2)C(CO)(c1ccccc1)c1ccccc1` (centres undefined), the inhibition is inactive: -5.03%.
As for `CC(C)Oc1ccc(C(=O)NCC2(N(C)C)CCCCC2)cc1`, the inhibition was inactive: -8.09%.
In the case of `CN(C)c1cccc(C(=O)NCC2(N(C)C)CCCCC2)c1` it was inactive: -3.56%; in that of `COc1ccc(Br)c(C(=O)NCC2(N3CCCCC3)CCCCC2)c1`, inactive: -3.17%.
Under `COc1cc(C(=O)NCC2(N(C)C)CCCCC2)c([N+](=O)[O-])cc1OC` stands inactive: -10.2%; under `CN(C)C1(CNC(=O)c2ccc(Br)cc2)CCCCC1`, inactive: 4.24%.
In the case of `O=C(NCC1(N2CCCCC2)CCCCC1)c1cccc(Cl)c1`, the inhibition is inactive: -7.89%.
Consider `COc1ccc(Cl)cc1C(=O)NCC1(N(C)C)CCCCC1`, for which the inhibition is inactive: -2.96%.
For `COc1cccc(C(=O)NCC2(N3CCCCC3)CCCCC2)c1`, the inhibition was inactive: -3.07%.

Usually inhibition stands for the change of the read-out against control, counted positive when it falls.

The record behind these values is PubChem BioAssay AID493012 (Sanford-Burnham Center for Chemical Genomics, 2011).
